For this experiment, the target named is T1, ^MBPFACT (MBP-TEV-SPT16 + His-TEV-SSRP1), untreated (human, phosphorylated as purified from insect cells; residues not printed | phosphorylated as purified from insect cells; residues not given).
T1 construct: SPT16, FACT subunit; SSRP1, FACT subunit; Immobilised on amylose resin through MBP on SPT16; also called full-length ^MBPFACT; source: Tnao38 insect cells (baculovirus), purified (HisTrap, HiTrap Q, SEC); not shown: MBP, N-terminal, kept
Briefly: pull-down; amylose resin, MBP-tagged FACT (untreated, dephosphorylated, kinase-treated or truncated) as bait, CCAN or CCAN subcomplexes as preys; 3 µM each; 20 mM Hepes pH 6.8, 300 mM NaCl, 2.5% glycerol, 1 mM TCEP, 0.01% Tween; 4°C; SDS-PAGE, Coomassie. As to conditions: both partners purified.

B1: CENP-TW^HFD (CENP-T^458-C/full-length CENP-W) (complex, human)
chain 1: AGLSHYVKLFSFYAKMPMERKALEMVEKCLDKYFQHLCDDLEVFAAHAGRKTVKPEDLELLMRRQGLVTDQVSLHVLVERHLPLEYRQLLIPCAYSGNSVFPAQ
chain 2: MALSTIVSQRKQIKRKAPRGFLKRVFKRKKPQLRLEKSGDLLVHLNCLLFVHRLAEESRTNACASKCRVINKEHVLAAAKVILKKSRG
notes: CENP-T, histone fold domain, residue 458 to the C-terminus; CENP-W; also called CENP-T^458-CW; source: recombinant, expressed and purified as previously reported
Consider B1, for which the binding result is “binds”.

For the origin of these results see paper PMC11912937 (The Journal of Cell Biology, 2025).
